Data reported in PubChem BioAssay AID651951 (The Scripps Research Institute Molecular Screening Center, 2012).
The list shows a part of the results, in another mix than the full data. Activity calls are given as the source filed them.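 The calls were made as follows: active = inhibition above the run cutoff, the mean inhibition of all test compounds plus 3 SD (cut at about 49% in these data); inactive = the rest.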

Sequences of proteins named here, by UniProt entry; tags and fusion partners are left off.
UniProt Q96RJ0, whole entry: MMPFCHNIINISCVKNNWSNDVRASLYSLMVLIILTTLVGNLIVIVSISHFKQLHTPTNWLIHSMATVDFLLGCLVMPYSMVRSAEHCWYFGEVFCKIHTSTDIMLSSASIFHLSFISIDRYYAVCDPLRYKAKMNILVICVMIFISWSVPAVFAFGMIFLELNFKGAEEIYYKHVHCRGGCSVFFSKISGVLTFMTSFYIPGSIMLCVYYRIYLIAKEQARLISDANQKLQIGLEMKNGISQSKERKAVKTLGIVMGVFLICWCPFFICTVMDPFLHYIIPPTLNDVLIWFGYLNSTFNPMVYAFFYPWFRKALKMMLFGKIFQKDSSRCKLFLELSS

biological target: Trace amine-associated receptor 1 (Homo sapiens) (UniProt Q96RJ0); assay: loss of beta-PEA response after agonist pre-exposure – cell-based, fluorescence, tachyphylaxis, counter-screen for TAAR1 agonist project, confirmation (AID 651951); conditions: CHO RD-HGA16 hTAAR1, Fluo-8 calcium, at 3 µM, active compounds read high;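 also: beta-PEA stimulus applied at its EC80; loss of beta-PEA calcium signal after compound pretreatment read as receptor desensitization; 0% = DMSO with beta-PEA at EC80 and 100% = DMSO alone without agonist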

**Q.** How did the inhibition turn out when `CP(=O)(OC12CC3CC(CC(C3)C1)C2)OC12CC3CC(CC(C3)C1)C2` was run?
**A.** The inhibition was inactive: -5.62%.
